Binding of CDR-mutated scFvs to a peptide of the spike HR2 region

Source: Engelhart et al. 2022 (doi:10.1038/s41597-022-01779-4), MIT Lincoln Laboratory and A-Alpha Bio; data file from the FLAb repository.

Binding partner: SARS-CoV-2 spike HR2 peptide, sequence PDVDLGDISGINAS.

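The starting antibody came from a phage panning campaign against this peptide. In library AAYL49, one, two or three CDR residues were substituted; doubles and triples were drawn at random. Affinity was read by AlphaSeq, a pooled yeast mating assay with surface-displayed partners. Binding brings cells together so that they mate, and sequencing counts the barcode pairs among the diploids. Read counts were normalised to the haploid input and turned into Kd by a linear fit to BCL2-family pairs of known affinity, for each replicate. Each pool was mated in three replicate cultures.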

Each scFv is VH, the linker GGGGSGGGGSGGGGS, VL, as in the parent Ab-14, and differs from it in the CDRs of the heavy chain only.
VH: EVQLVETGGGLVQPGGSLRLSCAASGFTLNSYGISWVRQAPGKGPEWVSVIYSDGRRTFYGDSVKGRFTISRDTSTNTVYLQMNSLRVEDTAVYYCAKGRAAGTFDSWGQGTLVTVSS
VL: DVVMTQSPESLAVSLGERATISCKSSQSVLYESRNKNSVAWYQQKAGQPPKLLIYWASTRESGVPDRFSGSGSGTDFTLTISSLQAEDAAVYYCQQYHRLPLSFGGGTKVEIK

The parent's heavy chain CDRs are GFTLNSYGIS, VIYSDGRRTFYGDSVK, GRAAGTFDS; each variant's own CDRs replace them letter for letter. Scale: log10 of Kd in nM, estimated from mating counts; low values are strong binders. Replicates are averaged; those with no signal do not enter the mean. "n.d." marks a missing value. The strain was present, yet no cells mated with the target were sequenced in that replicate, which points to weak or no binding. Empty control strains, which show no peptide, gave a signal in 15% of pairings with library AAYL49; the median was 4.06 and 95% of these signals were weaker than 2.83. No background was subtracted. For each scFv, signals with the empty controls are counted beside the result, with their mean in brackets.

CDR-H1 | CDR-H2 | CDR-H3 | replicates, log10 nM | mean log10 Kd (nM) | signal with controls
GFTVNSYGGQ | VIYSDGRRTFYGDSVK | GRAAGTFDS | 0.05 0.36 0.35 | 0.25 | 1/9 (3.29)
GDTLRSYGIS | RIYSDGRRTFYGDSVK | GRAAGTFDS | 4.47 n.d. n.d. | 4.47 | 4/9 (3.99)
GFTLNSYGIS | VIYSDGRRTFYGDSVY | GVAAYTFDS | n.d. n.d. n.d. | n.d. | 0/9
GFTLNSYGCS | VIYSDGRRTFYFDSVK | GSAAGTFDS | n.d. n.d. n.d. | n.d. | 1/9 (4.83)
GFTLNSYLIS | VIYFDGRRTFYGDPVK | GRAAGTFDS | 2.92 n.d. n.d. | 2.92 | 1/9 (2.80)
GFTKNSYGIS | VIMSDGRRTFYGDSVK | GRAAGTVDS | n.d. n.d. n.d. | n.d. | 0/9
GFTLNSYFIS | VIYSDGRRTFYGDSVK | GRAAGTFDS | n.d. n.d. n.d. | n.d. | 1/9 (3.26)
GFTLNSYGIV | VIYSDGRRTHYGDSVK | GRAAGTHDS | 3.57 4.39 n.d. | 3.98 | 7/9 (4.32)
GFTLNSYPIS | VIYWDGRRTFYGDSVK | GFAAGTFDS | n.d. 3.84 n.d. | 3.84 | 2/9 (3.16)
GFTLNSYGIS | VIYSDGRRQFYGDYVK | GRAAGTYDS | n.d. 3.64 n.d. | 3.64 | 0/9
GFTLNSPGIS | VIYSDGERTFQGDSVK | GRAAGTFDS | 5.33 n.d. n.d. | 5.33 | 0/9
GFTLNVYGIS | VIYSDGRRTFYGDSVK | GFAAGTFDS | 1.62 1.52 1.59 | 1.58 | 2/9 (3.58)
GFTLNSYGIS | VIYSDGRRTFYGFSVK | GKAAGTFDS | n.d. n.d. n.d. | n.d. | 2/9 (3.80)
GDTLNSYGIS | VIYSDGRRTFYHDSVW | GRAAGTFDS | 1.70 1.81 1.64 | 1.72 | 6/9 (4.68)
GFTLNSYGYS | VIYSDGRRTFYGDSVK | GRAAGTFDP | n.d. n.d. n.d. | n.d. | 0/9
GFTLNSYGIS | VIYSDGRRTFYGDNVK | GRAAGQWDS | n.d. n.d. n.d. | n.d. | 1/9 (3.54)
GFTANSYGIS | VIYSDGRRTFYGDSVK | GIAAGTFDS | 3.27 3.75 n.d. | 3.51 | 1/9 (3.21)
GFTLNSYWIS | VIYSDGRRTFYGDSVT | GRAAGTFYS | n.d. n.d. n.d. | n.d. | 0/9
GFTKNSYGIS | VIYSDGRRTFYGDSVK | GCAAGDFDS | 6.21 n.d. 6.09 | 6.15 | 0/9
GFTLNSFGIS | VIYSDGRRTFYMDSMK | GRAAGTFDS | n.d. n.d. 2.60 | 2.60 | 0/9
GFTLNSYGIS | VIYSDGRRTFYGQNVK | GRAAMTFDS | n.d. n.d. n.d. | n.d. | 2/9 (3.87)
GFTLNSYGIS | VIYSDGRRTFYGDSVK | GNNAGTFDS | 0.87 1.04 1.05 | 0.99 | 6/9 (4.47)
GFTLCSYGIS | IISSDGRRTFYGDSVK | GRAAGTFDS | 4.53 4.37 n.d. | 4.45 | 3/9 (4.55)
GFTLNSYGIS | EIISDPRRTFYGDSVK | GRAAGTFDS | n.d. n.d. 3.27 | 3.27 | 3/9 (3.46)
GFTLNSYGIS | VICSDGRRMFYGDTVK | GRAAGTFDS | n.d. n.d. n.d. | n.d. | 0/9
GETINSYGIS | VIYSDGRRTFYNDSVK | GRAAGTFDS | 2.37 2.34 2.56 | 2.42 | 3/9 (4.93)
GHTLNSYGIS | VIYSDGLRTFYGDSVK | GRAAYTFDS | n.d. n.d. n.d. | n.d. | 1/9 (2.88)
GFTMNSYGIS | VIYSDGRRGFYGDSVK | MRAAGTFDS | 5.19 4.71 4.18 | 4.69 | 8/9 (4.74)
GFTLNSYGIS | VIYCDGRRTFYKDSVK | GRAAGTFRS | 5.78 n.d. n.d. | 5.78 | 4/9 (4.12)
GFTLNIYGRS | VIYSTGRRTFYGDSVK | GRAAGTFDS | n.d. n.d. n.d. | n.d. | 0/9
GFTFNSTGDS | VIYSDGRRTFYGDSVK | GRAAGTFDS | n.d. n.d. n.d. | n.d. | 1/9 (3.47)
GFDWNSYGIS | VIYSDGRRTFYTDSVK | GRAAGTFDS | 1.90 2.06 1.99 | 1.98 | 6/9 (3.86)
GFTLNSYKIS | VIYSDGRRTFYQDSVK | GRAAGTFDS | 4.43 3.59 n.d. | 4.01 | 0/9
GFTLGSYGIS | VIYSDGRRQFYGDSVK | IRAAGTFDS | n.d. 1.97 n.d. | 1.97 | 0/9
GRTLNEYGIS | VIYSDGRRTFYGDSVK | GRNAGTFDS | 0.74 0.85 0.93 | 0.84 | 2/9 (4.78)
GFTLNSYGIS | VIYSDGRRTEVGESVK | GRAAGTFDS | n.d. 4.31 n.d. | 4.31 | 2/9 (3.24)
GFTLNSYGIS | DIYSDRRRTFYGDSVK | GRAAGTFSS | n.d. n.d. n.d. | n.d. | 1/9 (4.35)
GFTLNSYGIS | VIYSDGRRTFYGKSVK | GRAAGTFFS | n.d. n.d. 3.95 | 3.95 | 2/9 (3.96)
GFTLNSYGIS | VGYSDGRRTFYGDSTK | GRAAGTFES | n.d. n.d. 3.72 | 3.72 | 1/9 (5.30)
GHTLNSYGIS | VIYSDGRRTFEGDSVK | GRAAGTFDS | 3.36 4.02 n.d. | 3.69 | 1/9 (3.04)
GKTLNSYGIS | VIYSDGRRTFYGDSVK | YRAASTFDS | 4.35 4.38 3.81 | 4.18 | 5/9 (4.19)
GFTLDSYGIS | VIYSDGRKTFYGDSVK | GRAAGTFDS | n.d. n.d. n.d. | n.d. | 0/9
GFTLNSYGGS | VIYSDGRRTFYGDSVK | GNAACTFDS | n.d. n.d. n.d. | n.d. | 0/9
GFTLNSYGIS | VIYSDGRTTFYKDSVK | GRAAGTFDS | 1.75 2.08 2.07 | 1.97 | 0/9
GFTLNSYGIS | VIYSDYRDTFYGDSVK | GRADGTFDS | 4.63 n.d. n.d. | 4.63 | 0/9
GATLNSYGIS | VIYSDGRRTAYGDSVK | GRAAGTFDP | n.d. 2.29 n.d. | 2.29 | 1/9 (2.75)

The last 7 entries again:

CDR-H1 | CDR-H2 | CDR-H3 | replicates, log10 nM | mean log10 Kd (nM) | signal with controls
GHTLNSYGIS | VIYSDGRRTFEGDSVK | GRAAGTFDS | 3.36 4.02 n.d. | 3.69 | 1/9 (3.04)
GKTLNSYGIS | VIYSDGRRTFYGDSVK | YRAASTFDS | 4.35 4.38 3.81 | 4.18 | 5/9 (4.19)
GFTLDSYGIS | VIYSDGRKTFYGDSVK | GRAAGTFDS | n.d. n.d. n.d. | n.d. | 0/9
GFTLNSYGGS | VIYSDGRRTFYGDSVK | GNAACTFDS | n.d. n.d. n.d. | n.d. | 0/9
GFTLNSYGIS | VIYSDGRTTFYKDSVK | GRAAGTFDS | 1.75 2.08 2.07 | 1.97 | 0/9
GFTLNSYGIS | VIYSDYRDTFYGDSVK | GRADGTFDS | 4.63 n.d. n.d. | 4.63 | 0/9
GATLNSYGIS | VIYSDGRRTAYGDSVK | GRAAGTFDP | n.d. 2.29 n.d. | 2.29 | 1/9 (2.75)